Source: US9730940B2, “Purine inhibitors of human phosphatidylinositol 3-kinase delta” (priority 2012, dated 2017)

Protein sequences, listed by entry. Tags and fused reporters are not part of them.
UniProt P42336, whole entry, looked up: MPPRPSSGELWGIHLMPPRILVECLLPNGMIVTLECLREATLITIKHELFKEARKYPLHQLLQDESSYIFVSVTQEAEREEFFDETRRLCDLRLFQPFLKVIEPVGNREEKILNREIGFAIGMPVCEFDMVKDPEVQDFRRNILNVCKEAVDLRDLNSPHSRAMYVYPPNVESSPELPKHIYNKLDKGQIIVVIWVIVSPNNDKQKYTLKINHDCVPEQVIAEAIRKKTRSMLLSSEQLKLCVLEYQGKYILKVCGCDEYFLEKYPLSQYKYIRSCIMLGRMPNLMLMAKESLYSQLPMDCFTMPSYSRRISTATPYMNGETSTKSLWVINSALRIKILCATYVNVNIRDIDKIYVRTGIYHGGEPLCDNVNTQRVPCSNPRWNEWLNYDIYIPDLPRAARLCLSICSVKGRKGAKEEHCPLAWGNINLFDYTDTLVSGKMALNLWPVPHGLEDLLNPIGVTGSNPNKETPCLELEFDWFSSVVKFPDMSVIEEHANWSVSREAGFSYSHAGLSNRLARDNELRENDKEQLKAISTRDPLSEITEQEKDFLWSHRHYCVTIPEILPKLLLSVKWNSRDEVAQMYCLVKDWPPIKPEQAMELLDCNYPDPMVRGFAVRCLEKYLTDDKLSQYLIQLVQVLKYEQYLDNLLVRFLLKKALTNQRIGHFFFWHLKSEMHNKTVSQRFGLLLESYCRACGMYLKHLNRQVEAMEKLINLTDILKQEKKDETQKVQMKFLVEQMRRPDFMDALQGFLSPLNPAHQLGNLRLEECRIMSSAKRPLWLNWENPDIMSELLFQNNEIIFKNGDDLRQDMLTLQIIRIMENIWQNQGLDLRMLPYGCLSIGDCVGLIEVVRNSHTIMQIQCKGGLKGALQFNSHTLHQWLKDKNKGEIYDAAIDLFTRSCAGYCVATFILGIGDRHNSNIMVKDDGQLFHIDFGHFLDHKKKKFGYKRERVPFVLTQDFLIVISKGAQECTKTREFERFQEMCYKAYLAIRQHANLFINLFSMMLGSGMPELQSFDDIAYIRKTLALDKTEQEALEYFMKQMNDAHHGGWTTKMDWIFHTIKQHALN

Molecular target: PI3K-alpha (Homo sapiens (Human), UniProt P42336)
Test: HTRF PI3K biochemical assay, alpha isoform
Settings: ratio PI3K-alpha IC50 value/PI3K-delta IC50 value
Description: HTRF PI3K Biochemical Assay to Measure Intrinsic Potency of Compound Inhibitors
The PI3-Kinase biochemical assays were developed to measure the intrinsic potency and compound dependent inhibition of the alpha, beta, delta, and gamma PI3K isoform enzymes. This assay was developed and further optimized from a kit produced by Upstate (Millipore catalog #33-047) and has been configured for HTS and SAR screening. Briefly, this procedure exploits the exquisite specificity and high affinity binding of enzyme reaction substrate phosphatidyl(3,4,5)triphosphate (PIP3) to the GRP1 pleckstrin homology (PH) domain to generate the signal. In the absence of PIP3, an HTRF (Homogeneous Time-Resolved Fluorescence energy transfer) complex is formed consisting of europium (Eu)-labeled anti-GST, GST tagged GRP1-PH domain, biotin-PIP3 and streptavidin conjugated APC. […]
The loss of the HTRF signal is due to the displacement of biotinylated-PIP3 from the PH domain by the PI3K-dependent conversion of PIP2 to PIP3. […] All data were calculated using the ratio of acceptor (APC) to donor (Europium) fluorescence in each well of the assay plate. […] An IC50 was then calculated fitting the % inhibition data to the equation: % inhibition=min+(Max−min)/1+([inhibitor]/IC50)^n) where min is the % inhibition […], max is the signal in DMSO control, and n is the Hill slope.

With CCn1c(-c2cnc(C)nc2)nc2c(OC3CC4CCC3N4C(=O)C3CC3)ncnc21 (single isomer, unassigned) [Compound 2-139, cyclopropyl([(1R,2R,4S) or (1S,2S,4R)]-2-((9-ethyl-8-(2-methylpyrimidin-5-yl)-9H-purin-6-yl)oxy)-7-azabicyclo[2.2.1]heptan-7-yl)methanone] the “Relative Selectivity versus PI3Kalpha” value was over 10.
